Our source for the Ki values is BindingDB's records for PubMed 17827 (1977).

This assay concerns the target T1, Alpha-1A adrenergic receptor (Rattus norvegicus, UniProt P43140).
T1 sequence (P43140 whole entry): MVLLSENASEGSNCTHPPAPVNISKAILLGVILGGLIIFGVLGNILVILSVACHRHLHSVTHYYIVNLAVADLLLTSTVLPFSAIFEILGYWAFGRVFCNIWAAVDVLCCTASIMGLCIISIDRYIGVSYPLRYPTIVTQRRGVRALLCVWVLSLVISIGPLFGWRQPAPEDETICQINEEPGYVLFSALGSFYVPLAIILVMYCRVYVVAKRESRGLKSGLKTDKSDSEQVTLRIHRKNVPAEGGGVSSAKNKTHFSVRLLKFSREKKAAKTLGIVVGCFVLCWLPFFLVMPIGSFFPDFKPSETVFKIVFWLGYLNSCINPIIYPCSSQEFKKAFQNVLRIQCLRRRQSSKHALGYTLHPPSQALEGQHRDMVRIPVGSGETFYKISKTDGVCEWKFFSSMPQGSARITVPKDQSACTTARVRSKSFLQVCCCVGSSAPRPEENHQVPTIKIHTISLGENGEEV

pKi: −log10 of the molar value.

A word on the pKi: it is the negative decadic logarithm of the Ki, by convention in mol/L. Low readings indicate a large Ki, high ones a small Ki. Molecule `c1ccc2c(CC3=NCCN3)cccc2c1` [Naphazoline] gave a pKi of 8.24.
